1 molecule from publication PMC3722857 (Chemico-biological interactions, 2013) can be followed below.

Protein sequences, listed by entry. Tags and fused reporters are not part of them.
UniProt P03372, whole entry: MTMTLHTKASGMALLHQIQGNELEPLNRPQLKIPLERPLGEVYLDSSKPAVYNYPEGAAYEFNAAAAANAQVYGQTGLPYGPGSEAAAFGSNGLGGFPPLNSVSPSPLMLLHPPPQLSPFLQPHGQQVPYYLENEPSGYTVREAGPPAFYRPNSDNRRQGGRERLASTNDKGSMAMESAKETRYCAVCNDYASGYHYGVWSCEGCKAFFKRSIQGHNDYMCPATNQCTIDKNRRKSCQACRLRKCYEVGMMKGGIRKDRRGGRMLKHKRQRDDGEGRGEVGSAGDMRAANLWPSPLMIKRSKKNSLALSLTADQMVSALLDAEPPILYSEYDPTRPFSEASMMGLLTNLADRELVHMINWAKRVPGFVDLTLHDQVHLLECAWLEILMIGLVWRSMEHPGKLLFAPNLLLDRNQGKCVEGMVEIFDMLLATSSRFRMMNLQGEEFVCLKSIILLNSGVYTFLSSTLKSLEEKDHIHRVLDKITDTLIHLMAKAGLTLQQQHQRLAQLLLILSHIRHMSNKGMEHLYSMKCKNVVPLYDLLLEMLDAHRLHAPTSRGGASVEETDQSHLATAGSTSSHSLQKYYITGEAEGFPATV

This test addresses full-length ERα (Homo sapiens, UniProt P03372). The experiment in a line: ERα transient transfection 3X-ERE-luciferase assay, antagonist mode. Format: cell-based. To be noted: CV1 cells, in words.

Regarding `C[C@]12CC[C@@H]3c4ccc(O)cc4C[C@@H](CCCCCCCCC[S+]([O-])CCCC(F)(F)C(F)(F)F)[C@H]3[C@@H]1CC[C@@H]2O` (stereo partly shown) [ICI,182780, ICI 182,780, reference compound], the ER inhibition result is listed as “completely blocked ERα activity at nM concentrations”.
